Assay results published in PubChem BioAssay (NCI).
Some results for these compounds are left out of this collection, so the calls shown say nothing about other tests.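 Following 48 hours of exposure in 96-well plates, responses at five concentrations were used to interpolate endpoints linearly. TGI denotes the concentration required for complete inhibition of growth.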

Experiments:
Assay in all cases: inhibition of tumour cell growth, NCI panel, 48 h
UO-31 renal = tested on: UO-31 renal
HCT-116 colon = tested on: HCT-116 colon
SK-OV-3 ovarian = tested on: SK-OV-3 ovarian
SW-620 colon = tested on: SW-620 colon
RXF 393 renal = tested on: RXF 393 renal
MDA-N = tested on: MDA-N
HOP-62 NSCLC = tested on: HOP-62 NSCLC
UACC-62 melanoma = tested on: UACC-62 melanoma
A549 NSCLC = tested on: A549 NSCLC
NCI/ADR-RES ovarian = tested on: NCI/ADR-RES ovarian
OVCAR-5 ovarian = tested on: OVCAR-5 ovarian
SF-539 CNS = tested on: SF-539 CNS
786-0 renal = tested on: 786-0 renal
K-562 leukemia = tested on: K-562 leukemia
SK-MEL-28 melanoma = tested on: SK-MEL-28 melanoma
M14 melanoma = tested on: M14 melanoma
MCF7 breast = tested on: MCF7 breast
OVCAR-8 ovarian = tested on: OVCAR-8 ovarian
TK-10 renal = tested on: TK-10 renal
HL-60(TB) leukemia = tested on: HL-60(TB) leukemia
HCT-15 colon = tested on: HCT-15 colon
SK-MEL-5 melanoma = tested on: SK-MEL-5 melanoma
COLO 205 colon = tested on: COLO 205 colon
NCI-H522 lung = tested on: NCI-H522 lung
SNB-75 CNS = tested on: SNB-75 CNS
SR leukemia = tested on: SR leukemia
EKVX NSCLC = tested on: EKVX NSCLC
CCRF-CEM leukemia = tested on: CCRF-CEM leukemia
SF-268 CNS = tested on: SF-268 CNS
SF-295 CNS = tested on: SF-295 CNS
OVCAR-3 ovarian = tested on: OVCAR-3 ovarian
PC-3 prostate = tested on: PC-3 prostate
MOLT-4 leukemia = tested on: MOLT-4 leukemia
U251 CNS = tested on: U251 CNS
SNB-19 CNS = tested on: SNB-19 CNS
KM12 colon = tested on: KM12 colon
ACHN renal = tested on: ACHN renal
SN12C renal = tested on: SN12C renal
RPMI-8226 leukemia = tested on: RPMI-8226 leukemia
IGROV1 ovarian = tested on: IGROV1 ovarian
NCI-H23 lung = tested on: NCI-H23 lung
T-47D breast = tested on: T-47D breast
MALME-3M melanoma = tested on: MALME-3M melanoma
HCC-2998 colon = tested on: HCC-2998 colon
CAKI-1 renal = tested on: CAKI-1 renal
NCI-H226 lung = tested on: NCI-H226 lung
UACC-257 melanoma = tested on: UACC-257 melanoma
LOX IMVI melanoma = tested on: LOX IMVI melanoma
MDA-MB-231 breast = tested on: MDA-MB-231 breast
HT29 colon = tested on: HT29 colon
DU-145 prostate = tested on: DU-145 prostate

Measured: TGI

CC(C)C(O)(C(=O)O/C=C1\CC2CCN1CC2)c1ccccc1 (stereo unspecified)
45.8 µM: NCI/ADR-RES ovarian
> 100 µM: all other assays above

C=C(C)C#CC(O)(C(=O)OC1CCN(C)CC1)c1cccs1 (stereo unspecified)
not listed: NCI/ADR-RES ovarian
> 100 µM: all other assays above
